According to patent US9435795B2, “Enhanced deposition of chromogens utilizing pyrimidine analogs” (Ventana Medical Systems, Inc., priority 2010, dated 2016):
Where “and” joins values, the source holds several entries; their conditions need not be identical. Equal entries are not always repeated.

Chains of the proteins cited; added tags and fusions are not shown. Residues count along the entry.
UniProt P00433, 31-338: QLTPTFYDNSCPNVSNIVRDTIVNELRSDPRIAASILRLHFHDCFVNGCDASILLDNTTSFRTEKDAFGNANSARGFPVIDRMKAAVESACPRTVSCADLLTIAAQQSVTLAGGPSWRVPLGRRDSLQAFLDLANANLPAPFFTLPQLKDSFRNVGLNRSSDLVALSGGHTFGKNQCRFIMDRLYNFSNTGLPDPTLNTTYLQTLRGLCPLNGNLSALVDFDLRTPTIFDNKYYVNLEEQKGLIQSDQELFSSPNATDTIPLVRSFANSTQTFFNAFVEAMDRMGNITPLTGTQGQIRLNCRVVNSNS

Molecular target: T1, horseradish peroxidase (HRP) (Armoracia rusticana, UniProt P00433)
T1 construct: purchased VMSI (Ventana Medical Systems, Inc.) 760-500: 253-4290, 253-4292 and 253-4293
Assay: Plate assay: kinetic screening of enhancers of HRP-mediated DAB oxidation (ultraView Detection Kit, OD 455 nm)
Type: biochemical
Experimental: The additives were directly added to a well containing the necessary reagents from the ultraView™ Detection Kit (VMSI 760-500: 253-4290, 253-4292 and 253-4293) in 1× Reaction Buffer (VMSI 950-300) and 0.1% fish gelatin. Fish gelatin was used to help disperse the oxidized DAB and inhibit its precipitation from solution. The ultraView™ Detection Kit was diluted to measure the formation of oxidized DAB by UV-VIS at 455 nm. Additives were tested at set concentrations to determine enhancement in the DAB oxidation reaction. The data were graphed, and the apparent maximum velocity (Vmax) was calculated at each additive concentration level.

- Vmax (apparent, HRP-oxidized DAB): 38.80 mOD/min and 70.00 mOD/min
Compound: c1c[nH]cn1 [Imidazole]
